One assay concerns SNU-16 cells. Put plainly: Amount of antigen FGFR2 on cell surface of SNU-16 treated with low-molecular compound (QIFIKIT). In kind it is cell-based, human. The note with it: 100 to 1000 nM; compared with untreated or DMSO-treated SNU-16 cells. On the procedure:
This operation was repeated twice. […] The data was analyzed using Flowjo (manufactured by Tree Star Inc.).

The subject of a further assay is FGFR2. Description: In vivo expression level of antigen FGFR2 in SNU-16 tumor by Western blotting. The note with it: 3 mg/kg or 30 mg/kg orally; day after administration; compared with untreated control group. The arrangement: species or system nude mouse.

Entries after “also recorded” stand apart in the source; their conditions may differ.

Turning to `COc1cc(CCc2cc(NC(=O)c3ccc(N4C[C@@H](C)N[C@@H](C)C4)cc3)n[nH]2)cc(OC)c1` [AZD4547, N-(5-(3,5-dimethoxyphenethyl)-1H-pyrazol-3-yl)-4-((3S,5R)-3,5-dimethylpiperazin-1-yl)benzamide], the “number of the antigen FGFR2 on cell surface” value in the assay with SNU-16 cells was “elevated; also recorded: increased”. For the same compound, the “expression level of the antigen FGFR2 in the SNU16 tumor” value with FGFR2 is reported as “increased”.

Source of the values: patent US9931401B2, “Combination comprising anti-fibroblast growth factor receptor 2 (FGFR2) antibody and a tyrosine kinase inhibitor” (Daiichi Sankyo Company, Limited, priority 2013, dated 2018).
